Data: ChEMBL document CHEMBL1131240, “Novel benzothiazolin-2-one and benzoxazin-3-one arylpiperazine derivatives with mixed 5HT1A/D2 affinity as potential atypical antipsychotics” (J Med Chem, 1998)

Target: T1, Alpha-1A adrenergic receptor (Bos taurus, UniProt P18130)
T1 sequence (P18130 whole entry): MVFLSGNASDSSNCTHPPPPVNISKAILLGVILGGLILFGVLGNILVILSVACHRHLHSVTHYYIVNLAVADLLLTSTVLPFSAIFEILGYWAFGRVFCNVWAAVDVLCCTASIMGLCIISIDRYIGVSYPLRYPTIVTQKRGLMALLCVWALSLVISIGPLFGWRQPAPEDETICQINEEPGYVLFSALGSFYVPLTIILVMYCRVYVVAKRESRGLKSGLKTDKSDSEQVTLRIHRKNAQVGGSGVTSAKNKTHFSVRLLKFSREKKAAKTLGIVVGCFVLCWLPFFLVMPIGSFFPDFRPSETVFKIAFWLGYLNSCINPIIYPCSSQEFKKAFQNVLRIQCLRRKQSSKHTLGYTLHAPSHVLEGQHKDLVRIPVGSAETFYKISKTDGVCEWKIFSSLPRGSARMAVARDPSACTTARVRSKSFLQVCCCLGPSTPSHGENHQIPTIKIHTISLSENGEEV
Test: Affinity towards Alpha-1A adrenergic receptor in membranes from bovine frontal cortex using [3H]prazosin
Type: tissue-based

CN1CCN(C2=Nc3cc(Cl)ccc3Nc3ccccc32)CC1 [CLOZAPINE]
IC50: 0.16 µM
